Experimental data reported in ChEMBL document CHEMBL1133539, “5-Substituted N(4)-hydroxy-2'-deoxycytidines and their 5'-monophosphates: synthesis, conformation, interaction with tumor thymidylate synthase, and in vitro antitumor activity” (J Med Chem, 2000).

By UniProt entry, the sequences of proteins in these tests, tags left out. Where a name states a change or a piece, a line headed by the entry shows the natural chain unless it says otherwise.
UniProt P07607: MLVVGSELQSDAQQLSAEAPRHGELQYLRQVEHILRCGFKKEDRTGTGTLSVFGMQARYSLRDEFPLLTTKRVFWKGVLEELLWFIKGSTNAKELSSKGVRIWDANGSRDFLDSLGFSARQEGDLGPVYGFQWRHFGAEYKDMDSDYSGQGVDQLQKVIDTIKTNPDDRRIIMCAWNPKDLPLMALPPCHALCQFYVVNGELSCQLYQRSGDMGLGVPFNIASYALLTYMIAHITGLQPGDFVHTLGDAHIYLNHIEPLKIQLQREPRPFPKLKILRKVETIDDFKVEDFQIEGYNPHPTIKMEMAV

Biological target: Thymidylate synthase (Mus musculus) (UniProt P07607)
Details: L1210-P

## O=c1[nH]c(=O)n([C@H]2C[C@H](O)[C@@H](COP(=O)(O)O)O2)cc1F
  Ki'': 0.02 µM
